Ab-14 light chain CDR variants: yeast mating affinities

The target is the same throughout: PDVDLGDISGINAS, from the HR2 region of SARS-CoV-2 spike.

The variants keep the heavy chain, the linker and the frameworks of Ab-14 (scFv order VH, a (GGGGS)3 linker, VL).
VH: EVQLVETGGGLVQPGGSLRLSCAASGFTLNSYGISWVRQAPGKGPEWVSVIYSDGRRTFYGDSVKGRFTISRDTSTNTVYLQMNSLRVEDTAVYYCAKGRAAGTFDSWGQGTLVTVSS
VL: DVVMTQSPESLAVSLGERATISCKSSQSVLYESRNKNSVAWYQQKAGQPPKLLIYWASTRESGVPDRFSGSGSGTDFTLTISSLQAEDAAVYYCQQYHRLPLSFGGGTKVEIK

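Phage display of a naive human antibody library on the peptide gave the parent. Library AAYL50 holds single substitutions and randomly drawn double and triple substitutions in the CDRs. Affinity was read by AlphaSeq, a pooled yeast mating assay with surface-displayed partners. After mating in shaken culture at 30 °C for 16 h, diploids were selected and their barcode pairs sequenced. Read counts were normalised to the haploid input and turned into Kd by a linear fit to BCL2-family pairs of known affinity, for each replicate. Mating was done three times.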

Positions count from residue 1 of the parent VL; S26M puts M in place of S.
Scale: log10 of Kd in nM, estimated from mating counts; low values are strong binders.
A mean of the replicates is given; it leaves out those without a signal.
"ND" marks a missing value. The strain was present, yet no cells mated with the target were sequenced in that replicate, which points to weak or no binding.
Empty control strains, which show no peptide, gave a signal in 18% of pairings with library AAYL50; the median was 4.19 and 95% of these signals were weaker than 2.99. No background was subtracted. Also given: how often the same scFv was detected with the empty control strains, with their mean in brackets.
Parent in this assay: reference entry 0.65, copy in this library 1.68.

| changes | replicates, log10 nM | log10 Kd (nM), mean | signal with controls |
|---|---|---|---|
| S26M/S33G/R34Q | 0.34 / 0.67 / 0.57 | 0.53 | 1/9 (5.29) |
| N35K/Y97L/R99P | 0.79 / 2.17 / 1.16 | 1.37 | 0/9 |
| S33R/Q95C/P101R | 2.08 / 2.03 / 2.00 | 2.04 | 2/9 (3.10) |
| T59V/L100E/S103W | ND / ND / ND | ND | 1/9 (3.60) |
| K24E/S33P/W56C | 1.53 / 1.58 / 1.49 | 1.53 | 2/9 (5.19) |
| T59M/E61Q/Y97K | ND / 3.55 / ND | 3.55 | 2/9 (3.96) |
| E32S/V39A/Q95K | 3.51 / 5.13 / ND | 4.32 | 4/9 (4.60) |
| S62M/Y97L/L100R | 2.19 / 2.21 / 2.29 | 2.23 | 3/9 (4.76) |
| R60P | 2.00 / 1.56 / 2.04 | 1.87 | 2/9 (3.83) |
| A40I/T59W/L102N | ND / ND / ND | ND | 3/9 (4.62) |
| W56E/Q96Y/S103W | -0.05 / 0.24 / 0.34 | 0.18 | 6/9 (4.89) |
| L30S/S33F/P101T | 1.06 / 1.20 / 1.20 | 1.15 | 0/9 |
| S33N/R99C/L102C | 1.29 / 1.24 / 1.47 | 1.33 | 3/9 (3.46) |
| Q27K/S28I/V39C | ND / ND / ND | ND | 1/9 (3.92) |
| Y31G/V39W/Q96N | ND / ND / ND | ND | 1/9 (4.14) |
| K24F/R34I/T59M | 1.46 / 1.38 / 1.46 | 1.43 | 6/9 (4.75) |
| R34Y/Q96P | 5.08 / ND / ND | 5.08 | 5/9 (4.79) |
| Q27E/N35C/K36F | 2.50 / 2.45 / 2.37 | 2.44 | 2/9 (5.15) |
| S33E/R34K/K36A | 0.57 / 0.78 / 0.70 | 0.68 | 2/9 (4.16) |
| R60A/R99G/P101Y | ND / ND / ND | ND | 1/9 (3.88) |
| S25Y/S33R/S38L | 2.93 / 2.44 / ND | 2.69 | 1/9 (3.70) |
| N35Y/W56F/R99N | 2.41 / 2.57 / ND | 2.49 | 0/9 |
| V29E/K36A/A40P | ND / ND / ND | ND | 2/9 (3.80) |
| H98Q | 0.97 / 0.98 / 1.00 | 0.98 | 1/9 (5.42) |
| K24Q/S33H/L102V | ND / ND / ND | ND | 1/9 (3.11) |
| S33R/N37A/L102N | 5.09 / ND / ND | 5.09 | 4/9 (4.80) |
| Y31V/R60L/H98M | 0.71 / 0.86 / 0.86 | 0.81 | 2/9 (3.98) |
| K36T/Y97L | 1.14 / 1.32 / 1.54 | 1.33 | 0/9 |
| E32S/Q95S/R99Y | 2.85 / 2.90 / 3.16 | 2.97 | 2/9 (3.40) |
| V29E/E32K/P101G | 0.93 / 1.20 / 1.08 | 1.07 | 4/9 (4.01) |

Top 2 of the variants detected in all replicates, tightest first:

| changes | replicates, log10 nM | log10 Kd (nM), mean | signal with controls |
|---|---|---|---|
| W56E/Q96Y/S103W | -0.05 / 0.24 / 0.34 | 0.18 | 6/9 (4.89) |
| S26M/S33G/R34Q | 0.34 / 0.67 / 0.57 | 0.53 | 1/9 (5.29) |

Data: MIT Lincoln Laboratory AlphaSeq set, Engelhart et al. 2022, doi:10.1038/s41597-022-01779-4, as distributed in FLAb.